Reference: patent US11149054B2, “Oxysterols and methods of use thereof” (Sage Therapeutics, Inc., priority 2016, dated 2021)

By UniProt entry, the sequences of proteins in these tests, tags left out. Residues count along the entry.
UniProt Q13224, 27-1484: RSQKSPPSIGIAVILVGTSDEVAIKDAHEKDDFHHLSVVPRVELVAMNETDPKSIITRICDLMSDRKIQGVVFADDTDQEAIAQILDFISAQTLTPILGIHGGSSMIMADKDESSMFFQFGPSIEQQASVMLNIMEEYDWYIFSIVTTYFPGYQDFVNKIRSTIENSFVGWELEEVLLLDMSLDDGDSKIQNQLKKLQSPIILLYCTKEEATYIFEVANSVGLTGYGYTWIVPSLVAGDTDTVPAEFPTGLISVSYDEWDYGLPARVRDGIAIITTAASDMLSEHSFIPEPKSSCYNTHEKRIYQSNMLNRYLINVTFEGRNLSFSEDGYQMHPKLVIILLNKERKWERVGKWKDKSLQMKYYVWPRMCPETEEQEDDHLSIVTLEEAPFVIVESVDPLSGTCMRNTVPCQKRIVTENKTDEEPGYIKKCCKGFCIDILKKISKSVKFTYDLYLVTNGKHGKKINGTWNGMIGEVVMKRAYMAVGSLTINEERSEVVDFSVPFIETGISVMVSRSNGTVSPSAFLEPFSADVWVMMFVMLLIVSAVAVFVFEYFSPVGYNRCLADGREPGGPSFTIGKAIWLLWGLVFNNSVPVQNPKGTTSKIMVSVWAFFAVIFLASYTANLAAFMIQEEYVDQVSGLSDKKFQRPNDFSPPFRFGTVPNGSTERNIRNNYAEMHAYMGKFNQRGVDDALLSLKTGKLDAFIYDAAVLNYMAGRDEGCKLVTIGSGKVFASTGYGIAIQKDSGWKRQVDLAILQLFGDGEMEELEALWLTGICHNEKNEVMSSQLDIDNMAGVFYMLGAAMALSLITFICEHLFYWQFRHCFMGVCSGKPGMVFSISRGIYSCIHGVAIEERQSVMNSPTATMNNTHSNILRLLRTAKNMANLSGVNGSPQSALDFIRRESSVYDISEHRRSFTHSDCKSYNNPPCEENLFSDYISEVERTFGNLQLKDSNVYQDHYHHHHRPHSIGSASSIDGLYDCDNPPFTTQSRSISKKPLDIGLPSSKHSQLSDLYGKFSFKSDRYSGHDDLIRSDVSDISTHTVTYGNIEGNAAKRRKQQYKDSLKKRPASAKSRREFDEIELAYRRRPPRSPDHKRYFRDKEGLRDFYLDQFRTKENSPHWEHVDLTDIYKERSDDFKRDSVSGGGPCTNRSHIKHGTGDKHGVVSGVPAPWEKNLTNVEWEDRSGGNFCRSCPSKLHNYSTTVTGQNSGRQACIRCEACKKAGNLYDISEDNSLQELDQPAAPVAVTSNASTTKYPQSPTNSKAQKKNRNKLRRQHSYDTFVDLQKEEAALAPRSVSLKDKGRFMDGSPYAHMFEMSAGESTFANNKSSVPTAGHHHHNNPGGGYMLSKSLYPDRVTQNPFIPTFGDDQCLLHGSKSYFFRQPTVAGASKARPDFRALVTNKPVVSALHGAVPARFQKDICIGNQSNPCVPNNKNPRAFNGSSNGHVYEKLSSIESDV
UniProt Q12879, 23-1464: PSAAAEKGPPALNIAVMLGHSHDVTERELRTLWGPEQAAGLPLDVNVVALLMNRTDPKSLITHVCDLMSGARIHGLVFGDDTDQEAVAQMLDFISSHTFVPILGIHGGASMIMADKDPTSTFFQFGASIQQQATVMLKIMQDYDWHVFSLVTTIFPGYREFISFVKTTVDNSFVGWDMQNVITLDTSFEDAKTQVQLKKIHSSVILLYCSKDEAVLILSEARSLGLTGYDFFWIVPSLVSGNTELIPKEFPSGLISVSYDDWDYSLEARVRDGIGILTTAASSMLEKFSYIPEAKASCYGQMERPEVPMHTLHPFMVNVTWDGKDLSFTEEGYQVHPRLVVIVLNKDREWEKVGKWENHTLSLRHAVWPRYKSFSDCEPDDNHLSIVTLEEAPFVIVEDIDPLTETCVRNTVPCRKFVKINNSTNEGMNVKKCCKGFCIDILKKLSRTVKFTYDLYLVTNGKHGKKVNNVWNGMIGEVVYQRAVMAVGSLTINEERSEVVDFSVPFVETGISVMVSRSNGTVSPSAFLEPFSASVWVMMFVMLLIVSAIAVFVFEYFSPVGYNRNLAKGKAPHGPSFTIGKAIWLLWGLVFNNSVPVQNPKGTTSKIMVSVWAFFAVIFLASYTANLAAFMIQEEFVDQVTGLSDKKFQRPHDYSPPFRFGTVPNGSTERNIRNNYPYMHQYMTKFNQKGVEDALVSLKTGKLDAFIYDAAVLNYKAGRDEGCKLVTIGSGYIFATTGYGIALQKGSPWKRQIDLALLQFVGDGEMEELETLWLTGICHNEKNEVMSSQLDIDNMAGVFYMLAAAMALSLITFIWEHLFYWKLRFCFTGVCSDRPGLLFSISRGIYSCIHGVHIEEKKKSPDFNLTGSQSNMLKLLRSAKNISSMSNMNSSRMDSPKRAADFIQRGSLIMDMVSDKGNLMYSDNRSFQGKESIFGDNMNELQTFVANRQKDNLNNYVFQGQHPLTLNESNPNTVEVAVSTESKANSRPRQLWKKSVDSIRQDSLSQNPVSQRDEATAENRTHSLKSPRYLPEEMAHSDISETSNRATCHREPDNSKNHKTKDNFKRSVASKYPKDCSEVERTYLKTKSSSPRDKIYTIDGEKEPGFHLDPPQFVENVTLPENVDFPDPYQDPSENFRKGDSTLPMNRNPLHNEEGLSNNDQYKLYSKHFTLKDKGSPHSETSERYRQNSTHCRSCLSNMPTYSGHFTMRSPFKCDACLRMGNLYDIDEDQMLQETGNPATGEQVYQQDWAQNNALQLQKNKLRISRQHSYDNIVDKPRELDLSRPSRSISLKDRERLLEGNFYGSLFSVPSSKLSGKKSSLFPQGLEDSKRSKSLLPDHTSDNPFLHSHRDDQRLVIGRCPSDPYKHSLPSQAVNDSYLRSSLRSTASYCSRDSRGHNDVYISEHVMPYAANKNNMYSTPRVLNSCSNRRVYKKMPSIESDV

Tests used:
[1] = molecular target: GluN2B glutamate receptors (Homo sapiens (Human), UniProt Q05586+Q13224); assay: Whole-cell patch clamp of mammalian cells (Ionworks Barracuda), positive allosteric modulation, GluN2B; format: cell-based; settings: co-application with EC20 L-glutamate and 30 μM glycine; 8-point concentration-response; read-out: Avg EC50 2B
Experimental: (§1) The measurements were performed using Ion Works Barracuda platform following this procedure:
(§2) Electrophysiological Procedures:
(§3) • a) Intracellular solution (mM): 50 mM CsCl, 90 mM CsF, 2 mM MgCl2, 5 mM EGTA, 10 mM HEPES. Adjust to pH 7.2 with CsOH. • b) Extracellular solution, HB-PS (composition in mM): NaCl, 137; KCl, 1.0; CaCl2), 5; HEPES, 10; Glucose, 10; pH adjusted to 7.4 with NaOH (refrigerated until use). • c) Holding potential: −70 mV, potential during agonist/PAM application: −40 mV. Recording Procedure: • a) Extracellular buffer will be loaded into the PPC plate wells (11 μL per well). Cell suspension will be pipetted into the wells (9 μL per well) of the PPC planar electrode. • b) Whole-cell recording configuration will be established via patch perforation with membrane currents recorded by on-board patch clamp amplifiers. • c) Two recordings (scans) will be performed. First, during pre-application of test article alone (duration of pre-application—[…]) and second, during test articles and agonist (EC20 L-glutamate and 30 μM glycine) co-application to detect positive modulatory effects of the test article. […] Potentiating Effect of Positive Allosteric Modulators (PAM) on the Channel
PAM concentration-response data will be fitted to an equation of the form: % Activation=% L-glutamate EC20+{(% MAX−% L-glutamate EC20)/[1+([Test]/EC50)^N]}, where [Test] will be the concentration of PAM (test article), EC50 will be the concentration of PAM producing half-maximal activation, N will be the Hill coefficient, % L-glutamate EC20 will be the percentage of the current Elicited with L-glutamate EC20, % MAX is the percentage of the current activated with the highest dose of PAM co-admitted with L-glutamate EC20 and % Activation will be the percentage of the current elicited with L-glutamate EC10-30 at each PAM concentration. The maximal amplitude of the evoked currents are measured and defined as Peak Current Amplitude (PCA).

[2] = molecular target: GlunN1/GluN2A glutamate receptors (Homo sapiens (Human), UniProt Q05586+Q12879); assay: Whole-cell patch clamp of mammalian cells (Ionworks Barracuda), positive allosteric modulation, GluN1/GluN2A; format: cell-based; settings: HEK293 cells; co-application with EC20 L-glutamate and 30 μM glycine; 8-point concentration-response; read-out: Avg EC50 2A
Experimental: as §1, §2
as §3, with “Channel […]” for “Channel”

SMILES	EC50 [1]	EC50 [2]
CC[C@]1(O)CC[C@H]2C(=CC[C@@H]3[C@@H]2CC[C@]2(C)[C@@H]([C@H](C)CCCC(C)(C)O)CC[C@@H]32)C1 [Compound 194]	144 nM	–
C[C@H](CCC(C)(C)O)[C@H]1CC[C@H]2[C@@H]3CC=C4C[C@](O)(C(F)(F)F)CC[C@]4(C)[C@H]3CC[C@]12C [Compound 1839]	148 nM	–
C[C@H](CCC1(O)CCC(C)(C)CC1)[C@H]1CC[C@H]2[C@@H]3CC[C@H]4C[C@](O)(C(F)(F)F)CC[C@]4(C)[C@H]3CC[C@]12C [Compound E-2817]	5370 nM	5070 nM
